From patent US20080312271A1, “AZABENZIMIDAZOLYL COMPOUNDS” (Pfizer Inc., priority 2006, published 2008)

Amino acid sequences for entries named in this document (tags omitted). Residues count along the entry.
UniProt Q14416, 19-872 limits assumed: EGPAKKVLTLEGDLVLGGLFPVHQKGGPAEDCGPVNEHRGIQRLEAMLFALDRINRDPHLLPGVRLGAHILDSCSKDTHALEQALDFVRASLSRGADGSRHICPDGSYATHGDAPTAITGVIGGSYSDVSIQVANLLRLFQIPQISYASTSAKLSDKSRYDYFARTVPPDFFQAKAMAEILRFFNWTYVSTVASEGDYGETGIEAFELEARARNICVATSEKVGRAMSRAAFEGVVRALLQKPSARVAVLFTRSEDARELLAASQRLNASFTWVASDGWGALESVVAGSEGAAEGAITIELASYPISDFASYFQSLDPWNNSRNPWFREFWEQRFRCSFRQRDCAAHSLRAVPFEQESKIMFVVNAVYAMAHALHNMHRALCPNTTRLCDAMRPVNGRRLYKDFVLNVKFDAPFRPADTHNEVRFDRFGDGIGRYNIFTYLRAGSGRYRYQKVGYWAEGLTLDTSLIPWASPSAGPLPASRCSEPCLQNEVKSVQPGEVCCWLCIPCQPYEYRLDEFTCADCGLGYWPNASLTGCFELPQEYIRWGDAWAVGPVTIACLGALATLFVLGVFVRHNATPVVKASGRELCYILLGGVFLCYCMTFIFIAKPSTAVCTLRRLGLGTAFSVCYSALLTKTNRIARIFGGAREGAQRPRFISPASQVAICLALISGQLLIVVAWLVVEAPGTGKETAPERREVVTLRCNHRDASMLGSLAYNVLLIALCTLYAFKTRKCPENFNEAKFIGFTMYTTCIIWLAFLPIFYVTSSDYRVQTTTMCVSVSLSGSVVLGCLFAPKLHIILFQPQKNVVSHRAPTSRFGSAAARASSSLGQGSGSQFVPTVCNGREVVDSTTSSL

Target: mGluR2 receptor (metabotropic glutamate receptor 2) (Homo sapiens, UniProt Q14416)
Test: mGluR2 Potentiator Screen, FLIPR, EC10-EC20 glutamate challenge
Format: cell-based
[1] = mGluR2 potentiator screen, FLIPR, EC10-EC20 glutamate challenge
[2] = mGluR2 potentiator screen, FLIPR, EC10-EC20 glutamate challenge, tested form: HCl

SMILES | EC50 | EC50 [1] | EC50 [2]
COc1cccc(F)c1C1CCN(Cc2nc3ncccc3n2C)CC1 | 756 nM | – | –
CO[C@@H]1CN(Cc2nc3ncccc3n2C)CC[C@@H]1c1ccc(C(F)(F)F)cc1 (relative stereo) | 478 nM | – | –
C[C@@H]1CN(Cc2nc3cnccc3n2C)CC[C@@H]1c1ccc(Cl)cc1Cl (relative stereo) [233] | – | – | 72.3 nM

The remaining lines, values ahead:

EC50 | EC50 [1] | EC50 [2] | SMILES
– | 24.9 nM | – | Cn1c(CN2CCC(c3ccc(OC(F)(F)F)cc3F)CC2)nc2ncccc21
– | 192 nM | – | Cc1cc(C(F)(F)F)ccc1[C@H]1CCN(Cc2nc3cnccc3n2C)C[C@H]1C (relative stereo)
– | – | 731 nM | C[C@@H]1CN(Cc2nc3cnccc3n2C)CC[C@@H]1c1ccc(Cl)cc1Cl (relative stereo) [232]

Read-outs that look alike come from different tables or passages of the source.
